In patent US9808004B2, “Synergistic combination to improve grape color and to alter sensory characteristics of wine” (Valent BioSciences Corporation, priority 2007, dated 2017):

Tested on: red table grape cultivar 'Crimson Seedless'
Assay: Replicated field experiment on Crimson Seedless table grapes: colour development (harvestable clusters), firmness, berry weight, Brix; Synergy Index
Details: at harvest
Source text: The vineyard was 12 years old and on overhead trellis with a vine spacing of 12 ft by 7 ft (518 vines/acre). Plot size was three vines/replicate, with six replicates/treatments. The area evaluated within each plot was one center vine and two half vines on each side for a total of two vines. Applications were made seven days after veraison (beginning of berry softening). On the day of application, red coloration was developing on about 10% of the berries. […] All treatments were mixed with the adjuvant Latron B-1956 (0.05% v/v; Dow AgroSciences LLC, Indianapolis, Ind.). Treatments were applied with a backpack mist blower at 200 gallons/acre (757 l/acre).
The total grape clusters were counted on the day of application. After treatment, the plots were evaluated weekly for color development by counting the number of harvestable colored grape clusters in each plot. All harvestable colored clusters were removed 79 days later to eliminate over-mature clusters. The number of harvestable colored grape clusters was expressed as cumulative harvestable clusters (number of harvestable clusters per two vines). Average berry firmness, weight and Brix (soluble solids) were evaluated 5 days later. Evaluation samples consisted of 10 second shoulders (second lateral branch of the main rachis) from 10 different clusters selected randomly from each plot. All berries in the evaluation samples were removed, counted, and weighed. A sub-sample of 20 to 30 berries was crushed for brix (soluble solids) analysis. Brix was measured with a handheld temperature compensating Leica Refractometer. An additional 10 berries were selected randomly for berry firmness. Berry firmness was determined by a hand held Wilson Penetrometer (0 to 1000 g) mounted on a stand with a 6 mm tip.
Synergy was determined by an industrially accepted method (Kull et al., 1961, Applied Microbiology 9:538-541 and Robertson and Ramesh, 1998, U.S. Pat. No. 5,716,629). Synergy Index=Qa/QA+Qb/QB where:
Qa=dose of compound A in mg/vine, in the mixture, which produced an end point
QA=dose of compound A in mg/vine, acting alone, which produced an end point.
Qb=[…] of compound B in mg/vine, in the mixture, which produced an end point.
QB=dose of compound B in mg/vine, acting alone, which produced an end point.
Synergy, additivity, or antagonism are shown when the Synergy Index is less than one, equal to one, or greater than one, respectively.

[1] = 292 mg/vine of each compound applied

Compound | Firmness [1] [g] | Firmness (88 mg/vine of each compound applied) [g] | Firmness (877 mg/vine) [g]
O=P(O)(O)CCCl [Ethephon, reference compound] | 766 | – | –
(S)-5-(1-hydroxy-2,6,6,-trimethyl-4-oxo-2-cyclohexen-1-yl)-3-methyl-(2Z,4E)-pentadienoic acid [S-ABA] | 759 | 766 | 663
